Test results: PMC4128710 (Biochemical pharmacology, 2014)

Assays:
mouse A2BAR = assay: β-Arrestin2 translocation in PathHunter CHO cells; conditions: β-Arrestin versus cAMP reference pathway
A2BAR [1] = biological target: T1, A2BAR (Homo sapiens, UniProt P29275); assay: Intracellular calcium mobilization in HEK293 cells overexpressing the A2BAR
T1 sequence (P29275 1-332): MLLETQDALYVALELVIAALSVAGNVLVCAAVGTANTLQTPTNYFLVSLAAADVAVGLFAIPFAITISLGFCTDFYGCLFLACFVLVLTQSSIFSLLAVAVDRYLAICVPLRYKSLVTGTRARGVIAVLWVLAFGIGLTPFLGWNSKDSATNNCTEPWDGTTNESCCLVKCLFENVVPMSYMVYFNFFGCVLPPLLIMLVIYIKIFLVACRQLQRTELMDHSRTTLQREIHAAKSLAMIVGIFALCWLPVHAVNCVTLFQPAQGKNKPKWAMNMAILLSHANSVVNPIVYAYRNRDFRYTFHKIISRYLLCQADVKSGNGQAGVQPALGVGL

A2BAR [2] = biological target: T1, A2BAR; assay: Intracellular calcium mobilization in T24 cells
A2BAR [3] = biological target: T1, A2BAR; assay: cAMP accumulation in T24 cells endogenously expressing the A2BAR; conditions: NECA = 100%
A2BAR [4] = biological target: T1, A2BAR; assay: Intracellular calcium mobilization in HEK293 cells; conditions: endogenous A2BAR

Structure (SMILES) | ΔΔlog (τ/KA) (mouse A2BAR) | Max effect Calcium (% of effect of NECA) (A2BAR [1]) | Max effect Calcium (% of effect of NECA) (A2BAR [2]) | Max effect cAMP (% of effect of NECA) (A2BAR [3]) | Max effect Calcium (% of effect of NECA) (A2BAR [4])
CCNC(=O)[C@H]1O[C@@H](n2cnc3c(N)ncnc32)[C@H](O)[C@@H]1O [NECA, adenosine-5′-N-ethyluronamide] | 0.00 | – | – | – | –
C[C@H](Cc1ccccc1)Nc1ncnc2c1ncn2[C@@H]1O[C@H](CO)[C@@H](O)[C@H]1O [R-PIA, R-N^6-(phenylisopropyl)adenosine] | – | 18.2 ±4.9% | 9.6 ±4.1% | 68.6 ±7.1% | 0.6 ±1.4%
